# Source: PubChem BioAssay (Broad Institute)
# HIV Env fusion = HIV envelope-mediated fusion inhibition; AID 651610; inhibition, % at 12.3 µM; HeLa-JRFL Env/CEM21 cell fusion, luciferase; 360,000 compounds, 1.1% hits;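 active = mean replicate inhibition score of at least 50 and every replicate individually at or above 50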;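 note: 0% = plate neutral controls and 100% = maraviroc near 300 nM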
# PGC1a acetyl inh = modulators of PGC1a acetylation; U2OS PGC1a acetylation, AlphaScreen anti-acetyl-lysine; with virally co-expressed GCN5 acetyltransferase; inhibition, % at 15.6 µM; 350,000 compounds, 0.17% hits;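 active = every replicate shows inhibition of at least 40%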;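 note: 0% = neutral control wells and 100% = positive control wells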
# Yeast UUG start = modulators of start codon recognition fidelity in yeast; AID 602363; activity score, % at 18.7 µM; S. cerevisiae UUG-firefly luciferase reporter, luminescence/redox ratio; 0.13% of 350,000 active;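 active = replicate mean at a twofold rise or more, about +100% in these data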;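 note: firefly luciferase made from a UUG start codon reports start codon fidelity; reporter light over untreated wells divided by growth signal over untreated wells; some hits fall short of that in this replicate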
# FN deposit inh = fibronectin deposition inhibition; 350,000 compounds, 0.086% hits; AH1F fibroblasts, Alexa488-fibronectin deposition fluorescence, overnight; inhibition, % at 12.6 µM;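 active = mean inhibition across replicates of 30% or more, regardless of how many single replicates reach that level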;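 note: positive control wells lacked labelled fibronectin entirely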
#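 material = AH1F fibroblast monolayer depositing Alexa488-labelled fibronectin into matrix | amount = 10000 AH1F cells/well | buffer or medium = DMEM plus 2% serum, read in PBS | incubation = 1 h cell adhesion before compound, then overnight fibronectin incubation | detection = fluorescence at 485 nm excitation, 525 nm emission | evaluation = percent inhibition as loss of matrix-bound fibronectin fluorescence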
# miR122 inh = inhibitors of miR-122 in Huh7 cells; activation (reporter increase), % at 12.5 µM; Huh7 miR-122 Renilla luciferase sensor, 48 h; neutral wells = 0, positive control = 100; 340,000 compounds, 0.3% hits;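 active = mean replicate activation score at least 90 and every replicate individually at or above 90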;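 note: higher luciferase means less miR-122 activity so hits act as miR-122 inhibitors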
# Cneo AK release = Cryptococcus neoformans lysis via adenylate kinase release | C. neoformans lysis, adenylate kinase release luminescence, 4 h; normalised: neutral wells 0, clomiphene wells 100 | lysis activity, % at 15 µM | 360,000 compounds, 0.2% hits;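 active = mean lysis activity across replicates of at least 80%, whatever share of replicates individually reach that level; inactive = mean lysis activity below 80%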
#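 Assay system: C. neoformans cells. Amount: yeast cell density of 5 × 10^6 cells/mL. Technique: AK luminescence. Buffer or medium: YPD. Times: static 4 h at 37 °C with compound, 1 h detection. Dosing: single-point compound dose. Read-out: lysis from increased AK signal.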
# An asterisk follows results filed as active; x = no result; ! = repeats disagree; [ ] = another dose, or the depositor's remark. Only some compounds are listed: those with a hit (about 1.5% of all), similar ones and a draw of the others.
# Letters: A = HIV Env fusion; B = PGC1a acetyl inh; C = Yeast UUG start; D = FN deposit inh; E = miR122 inh; F = Cneo AK release
smiles: O=C(CSc1nc2ccccc2c(=O)n1-c1ccccc1)NCc1ccc2c(c1)OCO2
  A = 80*	B = -11	C = -4	D = 4	E = 1	F = 0

smiles: O=C(CSc1ncnc2c1cnn2-c1ccc(Cl)cc1)NCc1ccc2c(c1)OCO2
  A = -148	B = 4	C = -19	D = -3	E = -1	F = 600*

smiles: O=C(O)c1cccc(COc2ccc3c(c2)CCC3)c1
  A = 85*	B = 18	C = -84	D = 0	E = -4	F = -7

smiles: O=C(CC1C(=O)NCCN1C(=O)Nc1ccc(F)cc1)Nc1cc(Cl)ccc1Cl (stereo not given)
  A = -3	B = x	C = 14	D = -3	E = 0	F = 0

smiles: O=c1[nH]c2ccc(Br)cc2c(=O)o1
  A = -5	B = x	C = -32	D = -7	E = x	F = -1

smiles: Cc1ccc(S(=O)(=O)N2C[C@@H]3[C@H]4CC[C@H](C4)[C@@H]3[C@@H](C)[C@@H]2c2ccn(Cc3ccccc3)c2)cc1
  A = 63*	B = x	C = -10	D = 10	E = x	F = 0

smiles: Cc1sc2ncnc(N3CCN(c4ncccn4)CC3)c2c1C
  A = x	B = -2	C = 11	D = x	E = -5	F = 3

smiles: COc1cc(C(=O)N2CCN(c3ncnc4sc(C)c(C)c34)CC2)cc(OC)c1OC
  A = 82*	B = -6	C = -6	D = 10	E = 1	F = -1

smiles: CC1(C)OC(=O)C2(Cc3ccccc3N3CCCCC32)C(=O)O1 (stereo not given)
  A = -37	B = x	C = -12	D = 10	E = -5	F = -1

smiles: O=C(Oc1ccc2c(c1)OCO2)c1cc2c(s1)CCC2
  A = 75*	B = 22	C = -14	D = 0	E = -4	F = -18

smiles: O=C(CSc1n[nH]c(=O)[nH]c1=O)c1ccc([N+](=O)[O-])cc1
  A = -13	B = -6	C = x	D = 6	E = x	F = x

smiles: Cc1ccc(C(=O)C(C)N(C(=O)c2ccc(Cl)cc2Cl)N2C(=O)CCCC2=O)cc1 (stereo not given)
  A = -9	B = x	C = x	D = 7	E = x	F = x

smiles: COc1ccc(C(=O)C(C)N(C(=O)c2ccc(Cl)cc2Cl)N2C(=O)C3C4C=CC(C4)C3C2=O)cc1 (stereo not given)
  A = 123*	B = 8	C = -1	D = x	E = 2	F = 0

smiles: CCCN(CCC)CCCNC(=O)Cn1cnc2sc(C)c(S(=O)(=O)N3CCC(C)CC3)c2c1=O
  A = 5	B = x	C = -10	D = 14	E = x	F = 4

smiles: Cc1ccccc1-c1cnc2c(c1)C(=O)N([C@H](C)CO)C[C@H](C)[C@H](CN(C)Cc1ccccc1F)O2
  A = 15[16.7 µM]	B = -7	C = -4	D = -1	E = -10[16.7 µM]	F = -7

smiles: C[C@H](CO)N1C[C@H](C)[C@@H](CN(C)Cc2ccccc2F)Oc2ncc(Br)cc2C1=O
  A = 1	B = 64*!	C = 1	D = 5	E = 18	F = -1

smiles: C[C@H]1CN([C@@H](C)CO)C(=O)c2cc(Br)cnc2O[C@@H]1CN(C)Cc1ccccn1
  A = -16[16.7 µM]	B = 3	C = -15	D = x	E = -3[16.7 µM]	F = 107*

smiles: Cc1ccccc1-c1cnc2c(c1)C(=O)N([C@H](C)CO)C[C@@H](C)[C@H](CN(C)Cc1ccccc1F)O2
  A = 39[16.7 µM]	B = -3	C = 16	D = -1	E = 121*[16.7 µM]	F = 51

smiles: C[C@@H]1CN([C@H](C)CO)C(=O)c2cc(-c3ccccc3F)cnc2O[C@@H]1CN(C)Cc1ccccc1F
  A = 15[16.7 µM]	B = 10	C = -7	D = -13	E = -3[16.7 µM]	F = -3

smiles: C[C@H](CO)N1C[C@H](C)[C@@H](CN(C)Cc2ccccn2)Oc2ncc(Br)cc2C1=O
  A = -13	B = 0	C = -21	D = x	E = -4	F = 0

# Full records from above. Order of values: HIV Env fusion | PGC1a acetyl inh | Yeast UUG start | FN deposit inh | miR122 inh | Cneo AK release
# Cc1ccccc1-c1cnc2c(c1)C(=O)N([C@H](C)CO)C[C@H](C)[C@H](CN(C)Cc1ccccc1F)O2 as listed: 15[16.7 µM] | -7 | -4 | -1 | -10[16.7 µM] | -7
# O=C(Oc1ccc2c(c1)OCO2)c1cc2c(s1)CCC2 as listed: 75* | 22 | -14 | 0 | -4 | -18
# CC1(C)OC(=O)C2(Cc3ccccc3N3CCCCC32)C(=O)O1 (stereo not given) as listed: -37 | x | -12 | 10 | -5 | -1

# Other structures.
# Letters: A = HIV Env fusion; B = PGC1a acetyl inh; C = Yeast UUG start; D = FN deposit inh; E = miR122 inh; F = Cneo AK release
smiles: S=c1nc(C2CCCCC2)[nH]c2ccccc12
  A = 4	B = x	C = x	D = 5	E = x	F = x

smiles: COc1cc(CNC(C)c2ccccc2)cc(Cl)c1OCC(=O)Nc1ccccc1 (stereo not given)
  A = 71*	B = -41	C = x	D = 26	E = x	F = x

smiles: CCN(CC)CCNCc1cc(Cl)c(OCC(=O)Nc2ccccc2)c(OC)c1
  A = 0	B = -4	C = x	D = -8	E = x	F = x

smiles: Cc1ccc(-n2c(C)c([N+](=O)[O-])c3ccc(O)c(CN(C)C)c32)cc1
  A = 62*	B = -6	C = -16	D = 5	E = 9	F = 7

smiles: COc1cc(/C=C/C(=O)CC(=O)/C=C/c2ccc(O)c(OC)c2)ccc1O
  A = x	B = 1	C = 14	D = 3	E = -1	F = -1

smiles: CCOC(=O)C(c1ccccc1)C(Nc1cc(C(F)(F)F)cc(C(F)(F)F)c1)c1ccccn1 (stereo not given)
  A = 67*	B = 3	C = x	D = -8	E = x	F = x

smiles: C/C(=N\NC(=O)c1cc(C)nc2ccccc12)c1ccccn1
  A = 61*	B = x	C = -13	D = 7	E = x	F = 4

smiles: CC(=NNc1ccc2ccccc2n1)c1ccccn1
  A = 110*	B = x	C = x	D = -8	E = x	F = x

smiles: O=C(COC(=O)CCC1CCCC1)Nc1nc2c(F)c(F)c(F)cc2s1
  A = 12	B = -6	C = -13	D = 1	E = 6	F = 91*

smiles: O=C(COC(=O)c1ccco1)Nc1nc2c(F)c(F)c(F)cc2s1
  A = -7	B = x	C = -12	D = 1	E = x	F = 1

smiles: OC[C@@H]1CN(Cc2ccccc2)C[C@H](n2cnc3c(NCc4ccncc4)ncnc32)O1
  A = 59*	B = 1	C = -15	D = -10	E = -1	F = 0

smiles: OC[C@@H]1CN(Cc2ccc(F)cc2)C[C@H](n2cnc3c(NCc4ccncc4)ncnc32)O1
  A = -11	B = 27	C = -17	D = -5	E = -2	F = 1

smiles: Cc1ccc(C)c(N(C(=O)CNC(=O)c2ccco2)C(C(=O)NC2CCCC2)c2ccncc2)c1 (stereo not given)
  A = -2	B = 1	C = -5	D = -3	E = 0	F = 1

smiles: CC(C)C[C@@H](CNCC(=O)[C@H](C)NC(=O)c1[nH]cnc1C(=O)N[C@@H](C)CN)NC(=O)c1nc[nH]c1C(=O)N[C@@H](CC(=O)O)C(=O)O
  A = 20	B = 5	C = -7	D = -5	E = -4	F = 1

smiles: CC(C)C[C@@H](CNCC(=O)[C@H](Cc1c[nH]c2ccccc12)NC(=O)c1[nH]cnc1C(=O)N[C@H](CN)CC(C)C)NC(=O)c1nc[nH]c1C(=O)N[C@@H](CC(=O)O)C(=O)O
  A = x	B = x	C = 154*	D = -11	E = 1	F = -4

smiles: CC(C)C[C@@H](CNCC(=O)[C@H](Cc1c[nH]c2ccccc12)NC(=O)c1[nH]cnc1C(=O)N[C@@H](C)CN)NC(=O)c1nc[nH]c1C(=O)N[C@@H](C)C(=O)O
  A = x	B = x	C = 141*	D = -1	E = 6	F = 1

smiles: CC(C)C[C@@H](CNCC(=O)[C@H](Cc1c[nH]c2ccccc12)NC(=O)c1[nH]cnc1C(=O)N[C@@H](C)CN)NC(=O)c1nc[nH]c1C(=O)N[C@@H](CC(=O)O)C(=O)O
  A = x	B = x	C = 154*	D = -7	E = 0	F = -2

smiles: CC(C)C[C@@H](CN)NC(=O)c1nc[nH]c1C(=O)N[C@@H](Cc1ccccc1)C(=O)CNC[C@H](C)NC(=O)c1nc[nH]c1C(=O)N[C@@H](CC(=O)O)C(=O)O
  A = -7	B = -3	C = 13	D = -6	E = -2	F = 1

smiles: CC(C)C[C@@H](CNCC(=O)[C@H](Cc1ccccc1)NC(=O)c1[nH]cnc1C(=O)N[C@@H](C)CN)NC(=O)c1nc[nH]c1C(=O)N[C@@H](CC(=O)O)C(=O)O
  A = 13	B = -5	C = 0	D = 4	E = -3	F = 2

smiles: CCC(=O)N1CCCc2cc(S(=O)(=O)N3CCN(c4ncccn4)CC3)ccc21
  A = 10	B = -21	C = -13	D = 2	E = 5	F = 1
